Tests used:
Test in all cases: purified protein
[1] = system: CC(=O)SCCNC(=O)CCNC(=O)[C@H](O)C(C)(C)COP(=O)(O)OP(=O)(O)OC[C@H]1O[C@@H](n2cnc3c(N)ncnc32)[C@H](O)[C@@H]1OP(=O)(O)O; details: 50 mM HEPES pH 7.5, 150 mM NaCl, 0.1 mM EDTA, 25 °C
[2] = system: C[C@H]1O[C@H](O[C@H]2[C@H](O)[C@@H](O)[C@@H](O)[C@H](O)[C@@H]2O)[C@@H](N)C[C@@H]1NC(=N)C(=O)O; details: 125 μM acetyl-CoA, 50 mM HEPES pH 7.5, 150 mM NaCl, 0.1 mM EDTA, 25 °C
[3] = system: O=C(N[C@H](CO)[C@H](O)c1ccc([N+](=O)[O-])cc1)C(Cl)Cl; details: 500 μM acetyl-CoA (not saturating), 50 mM HEPES pH 7.5, 150 mM NaCl, 0.1 mM EDTA, 25 °C

Substance | Km ([1]; 250 μM kasugamycin) [µM] | kcat ([1]; 250 μM kasugamycin) [s⁻¹] | Km [2] [µM] | kcat [2] [s⁻¹] | Km ([1]; 400 μM chloramphenicol) [µM] | kcat ([1]; 400 μM chloramphenicol) [s⁻¹] | Km [3] [µM]
AAC(2′)-IIb (Paenibacillus sp. LC231) | 13 ± 1 | 2.9 ± 0.1 | 44 ± 2 | 2.95 ± 0.03 |  |  | 
CatU (Paenibacillus sp. LC231) |  |  |  |  | 400 ± 20 | 94 ± 2 | 50 ± 3

Reference: article PMC5155152, “A diverse intrinsic antibiotic resistome from a cave bacterium” (Nature Communications, 2016)
